Values quoted from earlier work, collected in patent US10201587B2, “Methods of inhibiting and treating biofilms using glycopeptide antibiotics” (MELINTA THERAPEUTICS, INC., priority 2008, dated 2019).

Conditions: humans, standard dose (oritavancin 200 mg); cited from earlier work

In the case of CC(=O)NC[C@H]1CN(c2ccc(N3CCOCC3)c(F)c2)C(=O)O1 [Linezolid, linezolid], the “estimated fCmax in plasma” value is given as 8 µg/mL.
